Where two headings read alike, the source gives them in different places.
System: human adult PBMCs
Conditions: for TNF production / TNF-inducing efficacy: various concentrations

## Cc1cnc2nc(-c3ccc(C)c(NC(=O)c4ccc(CN)cc4C(F)(F)F)c3)cn2c1 [Compound (1), 4-(Aminomethyl)-N-(2-methyl-5-(6-methylimidazo[1,2-a]pyrimidin-2-yl)phenyl)-2-(trifluoromethyl) benzamide]
Human PBMC in vitro, compared to PVP-037.1 and R848
  EC50 (TNF induction): lower EC50
Human adult PBMCs, 18 hrs, compared to PVP-037.1 and R848
  TNF production / TNF-inducing efficacy: greater TNF-inducing efficacy
Human adult PBMCs, 18 hrs, compared to PVP-037.1 and R848, listed as PVP-037.2
  TNF production / TNF-inducing efficacy: augmented TNF production
Human adult PBMCs, 18 hrs, among R848, PVP-037.1 and PVP-037.2
  potency (TNF production): most potent molecule

From US20260216325A1, “NOVEL IMIDAZOPYRIMIDINE COMPOUND AND USES THEREOF” (The Children's Medical Center Corporation, priority 2023, published 2026)
